Patent US20050250726A1, “Immunostimulatory nucleic acid for treatment of non-allergic inflammatory diseases” (University of Iowa Research Foundation, priority 2001, published 2005)

System: YAC-1 target cells
Assay: NK cytotoxicity assay, 4-h 51Cr-release against YAC-1 target cells
Type: cell-based, mouse
Conditions: B cell-depleted C57BL/6 spleen cells, 18 h; IL-2 100 U/mL, ODN 1585 5 μg/mL, SC-58236 0.25 μg/mL, PGE2 0.1 μg/mL; 1 LU = 30% 51Cr release
Description: Cytotoxicity assay. Spleen cells from C57BL/6 mice were depleted of B cells using paramagnetic beads coated with goat anti-mouse Ig as previously described. Ballas Z K et al. (1990) J Immunol 145:1039-45; Ballas Z K et al. (1993) J Immunol 150:17-30. […] […] Cultures were harvested at 18 h and the cells were used as effectors in a standard 4-h ^51Cr-release assay against YAC-1 target cells labeled with Na^51CrO4 (Amersham Life Science, Arlington Heights, Ill.) as described previously. Ballas Z K et al. (1990) J Immunol 145:1039-45; Ballas Z K et al. (1993) J Immunol 150:17-30; Ballas Z K et al. (1990) J Allergy Clin Immunol 85:453-39. One lytic unit (LU) was defined as the number of the cells needed to exert 30% specific lysis.
COX inhibitors augment the cytotoxic activity of NK cells. It has previously been reported that certain CpG DNA sequences can elicit strong lytic activity in NK cells (Ballas Z K et al. (1996) J Immunol 157:1840-45), whereas exogenous PGE2 is known to inhibit the activity of NK cell killing (Kanar M C et al. (1988) J Clin Immunol 8:69-79; Young M R et al. (1986) J Natl Cancer Inst 77:425-29). B cell-depleted murine spleen cells were stimulated with the stimulatory ODN 1585 in the presence or absence of a COX inhibitor. […] Similar data were obtained using the non-selective COX-inhibitor, piroxicam.

IL-2: interleukin-2, positive stimulus at 100 U/mL
NK activity, Mouse Spleen Cells (LU/10^6): 13.9 LU/10^6
